{"sequences": {"note": "By UniProt entry, the sequences of proteins in these tests, tags left out.", "UniProt O94768, whole entry": "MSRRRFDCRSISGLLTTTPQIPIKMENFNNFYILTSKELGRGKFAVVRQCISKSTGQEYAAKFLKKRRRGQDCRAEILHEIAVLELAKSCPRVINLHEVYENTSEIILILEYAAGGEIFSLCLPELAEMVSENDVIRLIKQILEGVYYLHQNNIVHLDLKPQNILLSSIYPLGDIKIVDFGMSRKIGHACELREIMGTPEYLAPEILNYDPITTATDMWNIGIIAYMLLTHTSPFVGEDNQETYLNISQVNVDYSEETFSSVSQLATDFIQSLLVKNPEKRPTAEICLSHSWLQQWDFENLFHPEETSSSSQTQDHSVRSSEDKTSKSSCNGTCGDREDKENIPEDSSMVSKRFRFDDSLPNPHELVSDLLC"}, "source": "patent US20240351966A1", "about": "“CLASS OF ALKYLPHENOL COMPOUNDS AND PREPARATION METHOD THEREFOR” (Shanghai Institute of Materia Medica, Chinese Academy of …, priority 2021, published 2024)", "origin": "cited, not measured here", "target": "DRAK2 (Homo sapiens (Human), UniProt O94768)", "conditions": "read-out: IC50 on DRAK2; literature value; cited from earlier work", "data": [{"smiles": "CCCCC(=O)Nc1ccc2c(c1)/C(=C1/Nc3ccccc3/C1=N\\O)C(=O)N2", "values": [{"measurement": "IC50", "result": 3, "unit": "nM"}]}]}
